Data: ChEMBL document CHEMBL1131442, “Novel analogues of arachidonylethanolamide (anandamide): affinities for the CB1 and CB2 cannabinoid receptors and metabolic stability” (J Med Chem, 1998)

The chains behind the UniProt entries cited, without tags or fusion partners.
UniProt P20272, whole entry: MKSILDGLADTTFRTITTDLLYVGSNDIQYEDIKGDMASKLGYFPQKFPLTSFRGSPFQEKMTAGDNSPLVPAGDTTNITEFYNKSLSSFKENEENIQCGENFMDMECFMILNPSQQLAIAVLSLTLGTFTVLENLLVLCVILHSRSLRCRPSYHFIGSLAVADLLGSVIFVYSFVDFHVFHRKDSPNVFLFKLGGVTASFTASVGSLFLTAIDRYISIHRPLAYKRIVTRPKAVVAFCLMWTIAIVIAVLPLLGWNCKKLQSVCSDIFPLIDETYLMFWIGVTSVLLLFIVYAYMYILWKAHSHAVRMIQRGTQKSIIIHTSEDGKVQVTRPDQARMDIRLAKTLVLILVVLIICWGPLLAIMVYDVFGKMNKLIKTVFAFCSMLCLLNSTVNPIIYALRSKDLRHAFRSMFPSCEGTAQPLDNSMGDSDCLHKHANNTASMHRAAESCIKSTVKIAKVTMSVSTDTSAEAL

Tests used:
Cannabinoid receptor 1 [1] = molecular target: T1, Cannabinoid receptor 1 (Rattus norvegicus, UniProt P20272); assay: Binding affinity towards cannabinoid receptor 1 from rat forebrain membranes in the absence of phenylmethanesulfonylfluoride (PMSF) using 0.8 nM [3H]CP-55940 as radioligand; design: species or system Membrane
Method in brief: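 Rat forebrain membranes were used without PMSF treatment. Incubation was with [3H]CP-55,940 (0.8 nM) and varied analogue concentrations in TME with 0.1% fatty acid-free BSA. Bound ligand was separated by filtration and counted by scintillation. IC50 from nonlinear regression was converted to Ki by Cheng–Prusoff.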

Cannabinoid receptor 1 [2] = molecular target: T1, Cannabinoid receptor 1; assay: Binding affinity towards cannabinoid receptor 1 from rat forebrain membranes in the presence of phenylmethanesulfonylfluoride (PMSF) using 0.8 nM [3H]CP-55940 as radioligand; design: species or system Membrane
Method in brief: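 Rat forebrain membranes were pretreated at 4 °C with 150 μM PMSF in TME for 15 min, brought to 300 μM for another 15 min, then washed three times. Binding used ~30 μg membrane in TME with 0.1% BSA, 0.8 nM [3H]CP-55,940 and varied analogue concentrations, 1 h. Filtration on GF/C was followed by scintillation counting. IC50 came from ≥2 experiments in duplicate, with Ki by Cheng–Prusoff.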

Structure (SMILES) | Ki (Cannabinoid receptor 1 [1]) [µM] | Ki (Cannabinoid receptor 1 [2]) [µM]
CCCCC/C=C\C/C=C\CCCCCCCC1=NCCO1 | 8.09 | 
CCCCC/C=C\C/C=C\CCCCCCCC(=O)NCCO [LINOLEOYLETHANOLAMIDE] | 40 | 10
CCCCC/C=C\C/C=C\C/C=C\C/C=C\CCCC(=O)N[C@H](C)CO [METHANANDAMIDE] | 0.0283 | 0.0179
CCCCC/C=C\C/C=C\C/C=C\C/C=C\CCCC(=O)N[C@@H](C)CO | 0.589 | 0.309
CCCCCCCC/C=C\CCCCCCCC(=O)NCCO [OLEOYLETHANOLAMIDE] |  | 20
CCCCC/C=C\C/C=C\C/C=C\C/C=C\CCCC(=O)NCCO [ANANDAMIDE] | 5.81 | 0.061
